The text below walks through data of ChEMBL document CHEMBL1124051 (J Med Chem, 1988).

By UniProt entry, the sequences of proteins in these tests, tags left out.
UniProt P33535, whole entry, looked up: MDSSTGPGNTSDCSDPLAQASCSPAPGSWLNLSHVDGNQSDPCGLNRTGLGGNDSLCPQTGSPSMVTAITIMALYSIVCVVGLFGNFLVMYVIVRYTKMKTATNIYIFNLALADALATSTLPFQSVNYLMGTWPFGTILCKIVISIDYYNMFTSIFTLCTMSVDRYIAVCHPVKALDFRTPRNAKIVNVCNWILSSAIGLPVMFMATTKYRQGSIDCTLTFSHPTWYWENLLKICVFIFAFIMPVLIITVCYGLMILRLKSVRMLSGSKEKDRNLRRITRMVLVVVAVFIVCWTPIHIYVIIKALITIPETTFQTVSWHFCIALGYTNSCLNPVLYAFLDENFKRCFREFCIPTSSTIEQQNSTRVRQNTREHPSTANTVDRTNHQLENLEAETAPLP

The target in experiment [1] is Mu-type opioid receptor (Rattus norvegicus) (UniProt P33535). Put plainly: Binding constant for the antagonist state was measured for its ability to displace [3H]naloxone from opioid mu 1 receptor buffered homogenate of rat brain membranes. The conditions noted are these: Membrane.
Experiment [2] has the same target. Put plainly: Binding constant for the agonist state was measured for its ability to displace [3H]naloxone from opioid mu 1 receptor buffered homogenate of rat brain membranes. As to conditions: Membrane.

“And” between values parts separate entries of the source, which are not always exact repeats. Identical values can stand only once.

Take `CC1C2Cc3ccc(O)cc3C1(C)CCN2Cc1ccoc1` (stereo unspecified): the Kp in experiment [1] was 13.1 and 19.8.
Turning to `CN1CCC23c4c5cccc4OC2C(=O)CCC3C1C5` (stereo unspecified), the Kp in experiment [1] worked out at 12.4. For the same compound, the KT in experiment [2] was determined as 16.
In turn, `CN1CCC23c4c5cccc4OC2C(O)C=CC3C1C5` (stereo unspecified) returned a Kp in experiment [1] of 10.3. The compound also returned a KT in experiment [2] of 14.1.
In experiment [1], `C[C@H]1[C@H]2Cc3ccc(O)cc3[C@]1(C)CCN2CC1CC1` [CYCLAZOCINE] yielded a Kp of 21.3. Moreover, the KT in experiment [2] stood at 22.2.
As to `C=CCN1CCC23c4c5ccc(O)c4OC2C(O)C=CC3C1C5` (stereo unspecified), the KT in experiment [2] was determined as 19.7.
Regarding `CC1C2Cc3ccc(O)cc3C1(C)CCN2Cc1ccco1` (stereo unspecified), the Kp in experiment [1] was 14.1 and 19.2.
The compound `CN1CCC23c4c5cccc4OC2C(=O)CCC3(O)C1C5` (stereo unspecified) registered a Kp in experiment [1] of 13. Moreover, the KT in experiment [2] turned out to be 15.8.
Regarding `C=CCN1CCC2(C)c3cc(O)ccc3CC1C2C` (stereo unspecified), in experiment [1], the Kp is 19.8 and 15.1. Further, the KT in experiment [2] was 19.6 and 18.7.
With `C=CCN1CCC23c4c5cccc4OC2C(O)CCC3C1C5` (stereo unspecified), in experiment [1], the Kp was 14.6. In addition, in experiment [2], the KT came to 14.1.
With `CN1CCC23c4c5cccc4OC2CCCC3C1C5` (stereo unspecified), the Kp in experiment [1] came out at 10.8. The same compound yielded a KT in experiment [2] of 15.8.
For `CN1CCC23c4c5ccc(O)c4OC2C(O)CCC3C1C5` (stereo unspecified), the Kp in experiment [1] came to 13.5. Further, the KT in experiment [2] turned out to be 19.
As for `C[C@H]1[C@@H]2Cc3ccc(O)cc3[C@]1(C)CCN2C` [METAZOCINE], the Kp in experiment [1] worked out at 13.1. The same compound came in with a KT in experiment [2] of 18.1.
